For one molecule, discrimination index results are on record in patent publication US20250255882A1, “TREATMENT OF CARDIAC CONDITION RELATED COGNITIVE DYSFUNCTION” (The Trustees of Columbia University in the City of New York, priority 2024, published 2025).

The test has as its system mouse model of HF (myocardial infarction, MI). Put plainly: novel object recognition test (hippocampal-dependent short-term memory). The format is in vivo. The following applies: MI mice, treated; MI 15%±4%, SHAM 48%±5%. An excerpt:
One-way analysis of variance (ANOVA) was used to compare the difference between the six groups in FIGS. 2B, 2C, 2E and 2F. Tukey's test was used for multiple comparisons; two-way ANOVA was used in FIG. 2D. […] All statistical tests were two sided with the data derived from biologically independent samples.
Next, a novel object recognition test was used to evaluate hippocampal-dependent short-term memory. (see Liu, X. et al. Role of leaky neuronal ryanodine receptors in stress-induced cognitive dysfunction. Cell 150, 1055-1067 (2012); and Bevins, R. A. & Besheer, J. Object recognition in rats and mice: a one-trial non-matching-to-sample learning task to study ‘recognition memory’. Nat. Protoc. 1, 1306-1311 (2006)).

Turning to `COc1ccc2c(c1)CN(C)CCS2` [S107], the discrimination index is 46%±4%.
